# This is a selection; strong and weak results do not stand in their true shares. Some results for these compounds are left out of this collection, so the calls shown say nothing about other tests. Activity calls are given as the source filed them.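 How the source made its calls: active means a compound raising TNF-alpha-driven VCAM-1 surface staining, with its hit status upheld on visual or statistical review; inactive means the rest, including hits rejected on review.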
# Experiment: enhancers of VCAM-1 display on endothelial cells, cell-based, plate reader, pooled HUVEC, TNFa stimulus (AID 455)
# Conditions: HUVEC TNFa-induced VCAM-1 immunofluorescence
row,Structure (SMILES),outcome
1,O=C(OC1CN2CCC1CC2)C(CO)(c1ccccc1)c1ccccc1 (stereo unspecified),inactive

# Source: PubChem BioAssay AID455 (Sanford-Burnham Center for Chemical Genomics, 2006)
